The values that follow come from publication PMC5068967, “Nucleophile sensitivity of Drosophila TRPA1 underlies light-induced feeding deterrence” (eLife, 2016).

Sequences of proteins named here, by UniProt entry; tags and fusion partners are left off.
UniProt B3G3I7, entry or part of it: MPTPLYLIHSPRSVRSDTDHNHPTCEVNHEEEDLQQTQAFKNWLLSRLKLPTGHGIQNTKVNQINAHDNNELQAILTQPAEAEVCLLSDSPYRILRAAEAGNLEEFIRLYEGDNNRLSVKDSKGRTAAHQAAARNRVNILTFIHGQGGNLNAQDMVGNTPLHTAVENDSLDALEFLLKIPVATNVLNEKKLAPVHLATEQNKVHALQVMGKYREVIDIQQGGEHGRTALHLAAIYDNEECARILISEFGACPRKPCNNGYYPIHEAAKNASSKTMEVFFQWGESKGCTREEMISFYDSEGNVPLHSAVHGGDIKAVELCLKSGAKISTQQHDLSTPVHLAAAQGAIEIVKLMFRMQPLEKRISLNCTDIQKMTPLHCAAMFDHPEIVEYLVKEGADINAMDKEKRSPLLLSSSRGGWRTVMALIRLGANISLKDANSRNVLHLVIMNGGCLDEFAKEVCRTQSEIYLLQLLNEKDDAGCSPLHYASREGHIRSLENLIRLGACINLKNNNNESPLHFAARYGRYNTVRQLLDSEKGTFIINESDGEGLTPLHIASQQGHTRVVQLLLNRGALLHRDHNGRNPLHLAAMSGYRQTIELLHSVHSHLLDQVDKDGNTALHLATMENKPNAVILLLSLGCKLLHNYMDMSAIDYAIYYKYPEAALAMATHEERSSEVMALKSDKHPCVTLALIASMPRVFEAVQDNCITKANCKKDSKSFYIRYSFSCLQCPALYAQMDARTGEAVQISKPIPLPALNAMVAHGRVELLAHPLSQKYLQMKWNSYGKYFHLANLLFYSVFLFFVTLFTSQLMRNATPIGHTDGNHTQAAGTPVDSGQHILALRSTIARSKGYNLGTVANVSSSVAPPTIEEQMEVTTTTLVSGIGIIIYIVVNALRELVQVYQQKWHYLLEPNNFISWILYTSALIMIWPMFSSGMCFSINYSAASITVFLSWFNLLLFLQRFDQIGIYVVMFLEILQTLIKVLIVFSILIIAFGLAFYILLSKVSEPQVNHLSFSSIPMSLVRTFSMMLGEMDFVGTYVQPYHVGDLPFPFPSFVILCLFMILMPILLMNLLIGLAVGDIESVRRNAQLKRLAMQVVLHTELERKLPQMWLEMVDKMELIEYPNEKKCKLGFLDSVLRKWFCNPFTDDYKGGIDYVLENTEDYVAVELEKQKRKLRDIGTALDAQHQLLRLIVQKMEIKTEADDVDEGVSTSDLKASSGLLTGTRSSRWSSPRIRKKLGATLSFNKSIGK

One assay concerns the target T1, Drosophila TRPA1(A) (Drosophila melanogaster, UniProt Q7Z020).
T1 sequence (Q7Z020 1-1197): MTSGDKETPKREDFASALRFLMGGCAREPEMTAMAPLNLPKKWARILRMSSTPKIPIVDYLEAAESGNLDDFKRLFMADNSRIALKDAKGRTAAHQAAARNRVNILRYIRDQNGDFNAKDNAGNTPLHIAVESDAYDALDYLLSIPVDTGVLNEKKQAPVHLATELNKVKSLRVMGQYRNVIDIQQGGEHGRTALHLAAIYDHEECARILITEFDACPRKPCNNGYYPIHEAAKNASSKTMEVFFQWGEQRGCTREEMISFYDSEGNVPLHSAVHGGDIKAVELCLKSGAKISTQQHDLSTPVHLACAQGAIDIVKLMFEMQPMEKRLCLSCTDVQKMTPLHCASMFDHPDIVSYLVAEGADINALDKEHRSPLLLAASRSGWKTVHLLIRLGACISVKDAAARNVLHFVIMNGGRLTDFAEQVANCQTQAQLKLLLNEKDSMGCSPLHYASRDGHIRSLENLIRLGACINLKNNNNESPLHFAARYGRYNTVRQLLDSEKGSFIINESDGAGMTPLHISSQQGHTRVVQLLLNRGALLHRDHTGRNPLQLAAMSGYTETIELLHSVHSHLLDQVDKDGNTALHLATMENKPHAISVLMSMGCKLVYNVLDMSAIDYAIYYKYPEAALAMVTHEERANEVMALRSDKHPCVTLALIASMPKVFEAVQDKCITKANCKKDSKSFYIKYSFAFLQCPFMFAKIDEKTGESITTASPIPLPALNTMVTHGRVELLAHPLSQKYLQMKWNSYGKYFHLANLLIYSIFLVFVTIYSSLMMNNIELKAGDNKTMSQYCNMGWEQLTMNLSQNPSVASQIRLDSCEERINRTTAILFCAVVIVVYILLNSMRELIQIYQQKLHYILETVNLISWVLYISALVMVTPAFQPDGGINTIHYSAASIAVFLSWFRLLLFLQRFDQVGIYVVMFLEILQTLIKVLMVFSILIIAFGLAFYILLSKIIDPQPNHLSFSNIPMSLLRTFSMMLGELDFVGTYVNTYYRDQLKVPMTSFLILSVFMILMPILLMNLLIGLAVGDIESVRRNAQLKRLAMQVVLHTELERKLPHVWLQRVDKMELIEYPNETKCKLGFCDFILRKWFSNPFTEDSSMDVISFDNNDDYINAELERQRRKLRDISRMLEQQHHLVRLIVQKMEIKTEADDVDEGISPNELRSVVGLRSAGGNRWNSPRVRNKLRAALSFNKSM
The assay can be described thus: Two-electrode voltage clamp of Xenopus oocytes expressing Drosophila TRPA1(A). Format: cell-based. How it is done: (§1) TRPA1-dependent currents in Xenopus laevis oocytes induced by application of chemicals and light illumination were recorded by the two-electrode voltage clamping technique (TEVC), as described previously ([Kang et al., 2010]; [Kang et al., 2012]). Briefly, ovaries were surgically prepared and subjected to digestion with 1.5 mg/ml collagenase for 1.5 hr. Subsequently, the follicular layer of the oocytes was manually removed. One day after microinjection of 50 nl of TrpA1 cRNA, oocytes were electrophysiologically examined while perfused with the recording solution (96 mM NaCl, 1 mM KCl, 1 mM MgCl2, 5 mM HEPES, pH 7.6). For UV illumination, the optical fiber terminal was mounted above the cell at a minimal distance to achieve the highest possible intensity (Figure 1—figure supplement 1c). H2O2 (HP1002, GeorgiaChem, GA, USA) and DTT (43819 Sigma Aldrich, MO, USA) solutions were freshly prepared before use. For UV experiments, the initial voltage was −60 mV, and it was then changed in periods of 300 ms from −60 to +60 mV per second. For H2O2 and DTT responses, the voltage was held constant at −60 mV during recording. […] Data from dose-dependence experiments were normalized with respect to 0.1 mM NMM currents recorded from the same cells, and fitted to the Hill equation using Sigmaplot12.
A general note: In two-electrode clamp one electrode senses voltage and the other passes current.

In another assay the target is agTRPA1(A) (Anopheles gambiae, UniProt B3G3I7). The assay is described as follows: Two-electrode voltage clamp of Xenopus oocytes expressing agTRPA1(A). In kind it is cell-based. Here is the method:
as §1

A word on the EC50: it is the concentration at which the effect is half-maximal. A low value points to greater potency. For `O[C@@H](CS)[C@@H](O)CS` (racemic) [DTT, dithiothreitol], the EC50 at Drosophila TRPA1(A) is about 92.8 µM. Further, at Drosophila TRPA1(A) (read-out: average maximal current amplitude relative to NMM responses), the Emax at 10000 µM is about 10%. In addition, at agTRPA1(A), the “NMM-normalized peak current amplitude relative to Drosophila TRPA1(A)” value is given as ~ 10 times.
